Only a part is listed here, and it is no random draw. Some structures show a salt or complex split into parts, the way the source records it. Activity calls are given as the source filed them.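 Rule for the calls: active = inhibition above about 50% at the single tested dose (limit read from the data); inactive = the rest.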
Each molecule was assayed against Sentrin-specific protease 6 (Homo sapiens) (UniProt Q9GZR1) (assay: inhibition of human SENP6 catalytic domain – biochemical, luminescence, uHTS, primary screen (AID 2599;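 note: plate controls were DMSO wells with enzyme for no effect and DMSO wells lacking enzyme for full effect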)). Conditions: Recombinant SENP6 catalytic domain, aminoluciferin luminescence; at 10 µM; hits give high values.

By UniProt entry, the sequences of proteins in these tests, tags left out. Residues count along the entry.
UniProt Q9GZR1, 628-1112 limits assumed: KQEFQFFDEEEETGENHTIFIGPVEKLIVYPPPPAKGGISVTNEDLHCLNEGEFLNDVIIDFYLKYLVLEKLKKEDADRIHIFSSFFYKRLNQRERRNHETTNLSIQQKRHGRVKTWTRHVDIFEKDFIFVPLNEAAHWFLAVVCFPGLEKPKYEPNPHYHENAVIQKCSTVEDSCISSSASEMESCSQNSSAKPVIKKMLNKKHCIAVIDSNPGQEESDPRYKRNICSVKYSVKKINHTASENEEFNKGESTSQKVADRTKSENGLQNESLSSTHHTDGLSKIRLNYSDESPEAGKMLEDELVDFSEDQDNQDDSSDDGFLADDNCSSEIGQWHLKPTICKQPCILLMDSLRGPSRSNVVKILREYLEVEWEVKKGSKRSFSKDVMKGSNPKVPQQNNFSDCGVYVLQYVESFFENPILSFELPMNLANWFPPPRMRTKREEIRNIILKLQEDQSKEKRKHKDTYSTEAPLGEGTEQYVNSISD

SMILES	inhibition
COc1ccccc1OP(C)(=O)Nc1cccc(Br)c1 (configuration not stated)	inactive: -10.2%
CCOC(=O)c1ccc(NP(C)(=O)Oc2cc(C)cc(C)c2)cc1 (configuration not stated)	inactive: 15.5%
Cc1cc(C)cc(OP(C)(=O)Nc2ccc(C)cc2C)c1 (configuration not stated)	inactive: -15.9%
Cc1ccc(C)c(NP(C)(=O)Oc2ccccc2)c1 (configuration not stated)	inactive: -0.479%
Cc1cc(C)cc(OP(C)(=O)Nc2ccccn2)c1 (configuration not stated)	inactive: -1.59%
CP(=O)(Nc1cccc(Br)c1)Oc1ccccc1 (configuration not stated)	inactive: 6.54%
O=C(O)c1cccc(Nc2c([N+](=O)[O-])cc([N+](=O)[O-])cc2[N+](=O)[O-])c1	inactive: 5.27%
CC1=NCCc2c1[nH]c1ccccc21.O=[N+]([O-])c1cc([N+](=O)[O-])c(O)c([N+](=O)[O-])c1	inactive: 8.36%
CCOC(=O)C(CC)C1=NC(C)(C)Cc2ccccc21.O=[N+]([O-])c1cc([N+](=O)[O-])c(O)c([N+](=O)[O-])c1 (configuration not stated)	inactive: 10.8%
CC1=C2N=C(C=C3N=C(C(C)=C4[N-][C@@](C)([C@@H]5N=C1[C@](C)(CCC(=O)NC[C@@H](C)OP(=O)([O-])O[C@H]1[C@@H](O)[C@@H](n6cnc7cc(C)c(C)cc76)O[C@@H]1CO)[C@H]5CC(N)=O)[C@@](C)(CC(N)=O)[C@@H]4CCC(N)=O)[C@@](C)(CC(N)=O)[C@@H]3CCC(N)=O)C(C)(C)[C@@H]2CCC(N)=O.[C-]#N.[Co+3]	active: 58.8%
O=[N+]([O-])c1cc([N+](=O)[O-])c(Nc2nnnn2CCO)c([N+](=O)[O-])c1	inactive: -0.469%
COc1ccccc1OP(C)(=O)Nc1c(C)cccc1C (configuration not stated)	inactive: -10.2%
CN1CCCCC1COC(=O)C1(O)c2ccccc2CCc2ccccc21 (configuration not stated)	inactive: -5.66%
CCCOc1ccc(NP(C)(=O)Oc2ccc(Cl)cc2)cc1 (configuration not stated)	inactive: -15.5%
CP(=O)(Nc1ccc(SC(F)(F)F)cc1)Oc1ccccc1 (configuration not stated)	inactive: -2.86%
O=[N+]([O-])c1cc([N+](=O)[O-])c(-n2nnc3ccccc32)c([N+](=O)[O-])c1	inactive: 11.1%
O=[N+]([O-])c1cc([N+](=O)[O-])c(-c2cnn(-c3ccccc3)c2)c([N+](=O)[O-])c1	inactive: 18.2%
Cc1nc2ccc3ccccc3c2s1.O=[N+]([O-])c1cc([N+](=O)[O-])c(O)c([N+](=O)[O-])c1	inactive: -22.8%
CP(=O)(Oc1ccccc1)OC(c1ccccc1)C(F)(F)F (configuration not stated)	inactive: -1.2%
Cc1cccc(C)c1OP(C)(=O)Nc1ccc(SC(F)(F)F)cc1 (configuration not stated)	inactive: -15.6%
CP(=O)(Nc1ccc(SC(F)(F)F)cc1)Oc1ccc(Cl)cc1 (configuration not stated)	inactive: -54%
Cc1cc(C)cc(OP(C)(=O)Nc2ccc(SC(F)(F)F)cc2)c1 (configuration not stated)	inactive: -2.37%

SMILES	inhibition
CP(=O)(NC(=O)Nc1ccccc1)Oc1ccccc1 (configuration not stated)	inactive: -6.52%
CCc1ccc(OP(C)(=O)N2CCN(c3ccc([N+](=O)[O-])cc3)CC2)cc1 (configuration not stated)	inactive: 0.575%
CCOC(=O)c1ccc(NP(C)(=O)Oc2ccc(OC)cc2)cc1 (configuration not stated)	inactive: -5.98%
O=[N+]([O-])c1cc([N+](=O)[O-])c(O)c([N+](=O)[O-])c1.c1ccc(Oc2ccncc2)cc1	inactive: -4.33%
CCOP(C)(=S)SCC(=O)NC(C)C(=O)O (configuration not stated)	inactive: -6%
CP(=O)(Nc1ccccn1)Oc1ccc(Cl)cc1 (configuration not stated)	inactive: 2.44%
CP(=S)(Nn1cnnc1)Oc1ccccc1 (configuration not stated)	inactive: -4.19%
CP(=O)(Nc1ccccc1Br)Oc1ccccc1 (configuration not stated)	inactive: -9.95%
COc1ccccc1OP(C)(=O)Nc1ccccc1 (configuration not stated)	inactive: -12.3%
O=[N+]([O-])c1cc([N+](=O)[O-])c(Nc2cccnc2)c([N+](=O)[O-])c1	inactive: 12%
Cc1cccc(C)c1OP(C)(N)=O (configuration not stated)	inactive: 9.37%
CC(C)(C)c1ccc(OP(C)(=O)Nc2ccc(SC(F)(F)F)cc2)cc1 (configuration not stated)	inactive: -22.3%
Cc1ccc(NP(C)(=O)Oc2ccccc2)c(C)c1 (configuration not stated)	inactive: 3.61%
COc1ccccc1OP(C)(=O)Nc1ccc(C)cc1 (configuration not stated)	inactive: -4.6%
CCOC(=O)c1ccc(NP(C)(=O)Oc2ccccc2)cc1 (configuration not stated)	inactive: -9.73%
Cc1cc(C)cc(OP(C)(N)=O)c1 (configuration not stated)	inactive: 1.02%
COc1ccc(OP(C)(=O)Nc2cccc(F)c2)cc1 (configuration not stated)	inactive: -1.84%
COc1ccccc1OP(C)(=O)Nc1cc(Cl)ccc1C (configuration not stated)	inactive: -11.4%
CCN(CC)CCCOC(=O)C(O)(c1ccccc1)c1ccccc1	inactive: -0.788%
COc1ccccc1OP(C)(=O)Nc1ccc(Br)cc1 (configuration not stated)	inactive: -29%
COc1ccc(OP(C)(=O)Nc2ccccn2)cc1 (configuration not stated)	inactive: -31%
CN(C)CCOC(=O)C(O)(c1ccccc1)C1CCCC1 (configuration not stated)	inactive: 9.14%

SMILES	inhibition
Cc1c(NP(C)(=O)Oc2ccc(C(C)C)cc2)c(=O)n(-c2ccccc2)n1C (configuration not stated)	inactive: 2.21%
O=[N+]([O-])c1cc([N+](=O)[O-])c(Nc2ccccn2)c([N+](=O)[O-])c1	inactive: 33.5%
COc1ccccc1OP(C)(=O)Nc1ccc(C)cc1C (configuration not stated)	inactive: 26.8%
CP(=O)(Nc1ccccn1)Oc1ccccc1 (configuration not stated)	inactive: 8.07%
CCc1ccc(OP(C)(=O)O)cc1	inactive: 6.83%
Cc1cc(C)cc(OP(C)(=O)Nc2cccc(C(F)(F)F)c2)c1 (configuration not stated)	inactive: 12.1%
COc1ccccc1OP(C)(=O)Nc1ccc(C)c(C)c1 (configuration not stated)	inactive: -16.2%
COc1ccc(OP(C)(=O)Nc2ccccc2Br)cc1 (configuration not stated)	inactive: -0.379%
Cc1nc2ccc3ccccc3c2o1.O=[N+]([O-])c1cc([N+](=O)[O-])c(O)c([N+](=O)[O-])c1	inactive: -3.95%
CP(=O)(Nc1ccc(Cl)cc1Cl)Oc1ccccc1 (configuration not stated)	inactive: 1.75%
CP(=O)(OCCOc1ccccc1)OCCOc1ccccc1	inactive: 7.79%
Nc1ccc2c(ccc3cccnc32)n1.O=[N+]([O-])c1cc([N+](=O)[O-])c(O)c([N+](=O)[O-])c1	inactive: -17.2%
CCOC(=O)c1ccc(NP(C)(=O)Oc2ccc(Cl)cc2)cc1 (configuration not stated)	inactive: 1.96%
CP(=O)(OC12CC3CC(CC(C3)C1)C2)OC12CC3CC(CC(C3)C1)C2	inactive: -0.961%
COc1ccc(OP(C)(=O)Nc2ccc(Br)cc2)cc1 (configuration not stated)	inactive: -0.605%
CCN(CC)CC(O)COC(=O)C(O)(c1ccccc1)C1CCCCC1 (configuration not stated)	inactive: -5.91%
O=C(OCCCN1CCCC1)C(O)(c1ccccc1)C1CCCCC1 (configuration not stated)	inactive: -3.48%
COc1ccccc1OP(C)(=O)Nc1c(C)n(C)n(-c2ccccc2)c1=O (configuration not stated)	inactive: -19.6%
CCc1ccc(OP(C)(=O)Nc2cccnc2)cc1 (configuration not stated)	inactive: 15.9%
CP(=O)(Oc1ccccc1)N1CCOC1=O (configuration not stated)	inactive: -27.4%
COc1ccccc1OP(C)(=O)Nc1ccccc1Br (configuration not stated)	inactive: 9.63%
CC(C)(C)c1ccc(OP(C)(=O)O)cc1	inactive: -12.7%

SMILES	inhibition
CP(=O)(Nc1ccc(Cl)cc1)Oc1ccc(F)cc1 (configuration not stated)	inactive: -20%
CN(C)C(=O)c1c([N+](=O)[O-])cc([N+](=O)[O-])cc1[N+](=O)[O-]	inactive: 32.2%
CP(=O)(Nc1ccc(SC(F)(F)F)cc1)Oc1ccc(F)cc1 (configuration not stated)	inactive: -5.35%
CCOP(C)(=S)SCC(=O)NC(C)(CC)C(=O)O (configuration not stated)	inactive: -0.983%
CP(=O)(Nc1ccc2c(c1)OCCO2)Oc1ccccc1 (configuration not stated)	inactive: 3.67%
Cc1ccccc1NP(C)(=O)Nc1ccccc1C	inactive: -22.1%
COc1ccc(OP(C)(=O)Nc2cccc(Br)c2)cc1 (configuration not stated)	inactive: 10.6%
CN(C)CCOC(=O)C(O)(c1ccccc1)C1CCCCC1 (configuration not stated)	inactive: 0.198%
COc1ccc(NP(C)(=O)Oc2ccccc2OC)cc1 (configuration not stated)	inactive: -32.4%
O=[N+]([O-])c1cc([N+](=O)[O-])c(NCC2CCS(=O)(=O)C2)c([N+](=O)[O-])c1 (configuration not stated)	inactive: 6.87%
CCOC(=O)c1ccc(NP(C)(=O)Oc2ccc(F)cc2)cc1 (configuration not stated)	inactive: 0.685%
COc1ccc(OP(C)(=O)Nc2ccc(SC(F)(F)F)cc2)cc1 (configuration not stated)	inactive: 4.29%
CCN(CC)CCCOC(=O)C(O)(c1ccccc1)C1CCCCC1 (configuration not stated)	inactive: -0.866%
CP(=O)(Nc1ccccc1)Oc1ccc(F)cc1 (configuration not stated)	inactive: -25.3%
O=[N+]([O-])c1cc([N+](=O)[O-])c(OC2CCCCC2O)c([N+](=O)[O-])c1 (configuration not stated)	inactive: 11.7%
CCCCCOc1ccc(NP(C)(=O)Oc2ccc(Cl)cc2Cl)cc1 (configuration not stated)	inactive: 8.75%
CP(=O)(Nc1ccccc1F)Oc1ccccc1 (configuration not stated)	inactive: 0.25%
CC(C)c1ccc(OP(C)(=O)Nc2ccc(SC(F)(F)F)cc2)cc1 (configuration not stated)	inactive: -23.7%
O=C(OC1CN2CCC1CC2)c1ccc([N+](=O)[O-])cc1 (configuration not stated)	inactive: -4.33%
O=C(OCCN1CCN(CCOCc2ccccc2)CC1)C(O)(c1ccccc1)c1ccccc1	inactive: -0.247%
COc1ccc2c(c1O)-c1c(O)c(OC)cc3c1[C@H](C2)[N+](C)(C)CC3.O=[N+]([O-])c1cc([N+](=O)[O-])c([O-])c([N+](=O)[O-])c1[O-]	inactive: -1.34%

— PubChem BioAssay AID2599 (Sanford-Burnham Center for Chemical Genomics, 2010)
